Among the data in patent US20230087342A1, “AZEPANE DERIVATIVE” (Nippon Chemiphar Co., Ltd., priority 2019, published 2023) are EC50 values, retold here.

Sequences of proteins named here, by UniProt entry; tags and fusion partners are left off.
UniProt P41145, whole entry: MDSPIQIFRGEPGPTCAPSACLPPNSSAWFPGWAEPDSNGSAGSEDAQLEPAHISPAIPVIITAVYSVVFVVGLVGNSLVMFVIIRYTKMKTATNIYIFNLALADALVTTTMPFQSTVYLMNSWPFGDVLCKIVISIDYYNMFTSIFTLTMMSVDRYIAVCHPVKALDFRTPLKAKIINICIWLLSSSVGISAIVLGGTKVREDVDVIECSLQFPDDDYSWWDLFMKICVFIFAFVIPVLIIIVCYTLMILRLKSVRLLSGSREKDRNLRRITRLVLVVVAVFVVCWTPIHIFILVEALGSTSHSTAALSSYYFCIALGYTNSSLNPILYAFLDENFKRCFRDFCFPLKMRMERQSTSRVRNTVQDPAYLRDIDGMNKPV

For the test, the target named is human κ opioid receptors (Homo sapiens, UniProt P41145). Kind of test: Opioid receptor function test (Lance Ultra cAMP kit, agonist activity). Particulars: read-out: EC50 value, CHO cells expressing human κ opioid receptors, 10 μM forskolin, 30 minutes. The procedure:
Opioid Receptor Function Test
The function activity of the compound of the present invention on κ opioid receptors was examined.
Method: Using a Lance Ultra cAMP kit (Perkin Elmer), the examination was performed according to a predetermined method. In evaluation of agonist activity, CHO cells expressing human κ opioid receptors (Catalog No. CT6606, accession No. NM_000912) and a test compound were reacted in an assay buffer (1×HSS, 5 mM HEPES, pH 7.4, 0.5 mM IBMX (isobutylmethyixanthine), 0.1% SA) in the presence of 10 μM forskolin for 30 minutes. Subsequently, a cAMP detection reagent in the kit was added. One hour later, time-resolved fluorescence measurement was performed using an EnVision plate reader (Perkin Elmer). The evaluation of the test compound was performed in a concentration range of 10^−14 to 10^−7 M for the κ opioid receptor function test.

On to `C=CCN1CC[C@]23CCN(CCn4cc(C)cn4)CC[C@@]2(O)[C@H]1Cc1ccc(O)cc13`, for which the EC50 stood at 0.22 nM. The value for `Cc1cnn(C[C@H](C)N2CC[C@]34CCN(CC5CC5)[C@H](Cc5ccc(O)cc53)[C@]4(O)CC2)c1` was 0.01 nM.

For orientation: EC50 means the concentration needed to bring the measured effect to its halfway point.
